Data set [1] concerns CHD4(1-1540) (Homo sapiens). The experiment in a line: MST. Conditions: CHD4: 50 mM HEPES pH 7.5, NaCl up to 50 mM and MgCl2 up to 3 mM (from dilution buffer), 100 ng/uL BSA, 0.5% glycerol, 25 nM Cy5 substrate; C1bC2a: 20 mM HEPES ….
Data set [2] deals with CHD4-IDR2-del+ (Homo sapiens). The experiment in a line: MST. Conditions: 3 mM Mg2+ in dilution buffer; CHD4: 50 mM HEPES pH 7.5, NaCl up to 50 mM and MgCl2 up to 3 mM (from dilution buffer), 100 ng/uL BSA, 0.5% glycerol, 25 nM Cy5 substrate; C1bC2a: 20 mM HEPES ….
Data set [3] addresses 46w60 nucleosome (recombinant human histone octamer on Widom 601 DNA with 46-bp and 60-bp flanks), Cy5-labelled (human) (UniProt P0C0S8). The experiment in a line: MST. Conditions: enzyme.
In data set [4] the target is 46w60 nucleosome (recombinant human histone octamer on Widom 601 DNA with 46-bp and 60-bp flanks), Cy5-labelled, P0C0S8;P62807;P68431;P62805. The experiment in a line: microscale thermophoresis (MST). Conditions: parent: 45.

As usually defined, the Kd is the equilibrium constant for the complex coming apart.

46w60 nucleosome: the Kd in data set [1] and in data set [2] was 250 nM throughout. Regarding “CHD4-IDR2-del+ (from UniProt Q14839 1-226; Q14839 363-1912)”, the Kd in data set [3] came to 250 nM. As for “WT CHD4 (human chromodomain helicase DNA-binding protein 4, full length) (from UniProt Q14839) IDR2-del+ (residues 227-362 replaced by an alpha-synuclein sequence of the same length; single substitutions not printed)”, the Kd in data set [4] was determined as 250 nM.
